From PMC12281485, “High-Throughput Screening of Potent Drug-like Molecules Targeting 17β-HSD10 for the Treatment of Alzheimer’s Disease and Cancer” (ACS Chemical Biology, 2025)

By UniProt entry, the sequences of proteins in these tests, tags left out.
UniProt Q99714, whole entry: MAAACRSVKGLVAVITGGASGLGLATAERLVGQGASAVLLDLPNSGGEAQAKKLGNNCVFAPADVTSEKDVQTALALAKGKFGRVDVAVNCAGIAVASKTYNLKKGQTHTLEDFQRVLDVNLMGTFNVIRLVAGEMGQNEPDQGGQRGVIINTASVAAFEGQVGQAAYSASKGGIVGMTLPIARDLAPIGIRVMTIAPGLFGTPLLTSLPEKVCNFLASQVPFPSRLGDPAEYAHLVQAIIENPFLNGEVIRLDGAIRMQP

What was measured:
[1] = test system: HEK293 cells overexpressing 17β-HSD10; assay: LDH cytotoxicity assay; details: 50 μM compound, 24 h, n = 3 ± SD
[2] = test system: HEK293 cells overexpressing 17β-HSD10; assay: Alamar Blue cell viability assay; details: 50 μM compound, 24 h, n = 3 ± SD
17β-HSD10 [3] = target: T1, 17β-HSD10 (Homo sapiens, UniProt Q99714); assay: (−)-CHANA fluorescence assay of cellular 17β-HSD10 activity; details: read-out: cellular 17β-HSD10 activity mean pEC50 (converted)
17β-HSD10 [4] = target: T1, 17β-HSD10; assay: 17β-HSD10 enzyme inhibition dose-response assay (acetoacetyl-CoA/NADH, absorbance 340 nm); assay type: biochemical; details: for mean 17β-HSD10 pIC50: Table 5
[5] = Mouse hepatocyte metabolic stability; parameters: k (elimination constant): unit not given here; details: mouse hepatocytes; for Heps category: metabolism category; for Cl (clearance): limits of quantitation 0.5 and 50
[6] = Mouse plasma protein binding
[7] = Table 4, 17β-HSD10 overexpressing HEK293 cells, CHANA fluorescence assay
[8] = Table 5, HEK293 17β-HSD10 cells, CHANA assay

Structure (SMILES)	LDH % toxicity (50 μM dose) [1] [%]	Alamar Blue % viability (50 μM dose) [2] [%]	EC50 (17β-HSD10 [3]; [7]) [nM]	mean 17β-HSD10 pIC50 (17β-HSD10 [4])	EC50 (17β-HSD10 [3]; [8]) [nM]	T1/2 (half-life) [5] [min]	k (elimination constant) [5]	Heps category [5]	Cl (clearance) [5] [mL/min/g liver]	LipE (17β-HSD10 [4])	mouse PPB (% free) [6] [% free]
CC(C)CN(C(=O)c1ccc(Cl)cc1)c1cccc(N(C)Cc2cnc[nH]2)c1	5.08 ± 0.003	78.96 ± 1.38	1220	–	–	–	–	–	–	–	–
CC(C)CN(C(=O)c1ccccc1)c1cccc(N(C)Cc2cnc[nH]2)c1	–	96.19 ± 0.82	2960	–	–	–	–	–	–	–	–
Cc1ccsc1C(=O)N1CCC[C@@H]1c1ccccc1-c1ccccc1	4.61 ± 0.03	81.74 ± 0.92	860	–	–	–	–	–	–	–	–
Cc1ccsc1C(=O)N1CCC[C@H]1c1ccccc1-c1cccc(Cl)c1 (single isomer, unassigned)	5.84 ± 0.03	80.48 ± 1.12	713	6.77	713	4.7	0.15	high	>50	–	–
O=C(c1[nH]ncc1Cl)N1CCC[C@H]1c1ccccc1-c1cccc(O)c1 (single isomer, unassigned)	5.51 ± 0.03	93.20 ± 0.43	170	6.96	170	–	0.046	high	21.9	2.96	9.9

Where two headings read alike, the source gives them in different places.
